In ChEMBL document CHEMBL1772975, “Novel potent and selective σ ligands: evaluation of their agonist and antagonist properties” (J Med Chem, 2011):

Species on record: Cavia porcellus
Assay: Selectivity ratio of Ki for sigma 1 receptor in guinea pig brain membranes to Ki for sigma 2 receptor in guinea pig brain membranes
Type: cell membranes

| Structure (SMILES) | Ratio Ki |
| --- | --- |
| COC(=O)[C@]1(c2ccccc2)C[C@@H]1CN1CCC(O)(c2ccc(Cl)cc2)CC1 | 5.5 |
| COC(=O)[C@@]1(c2ccccc2)C[C@H]1CN1CCC(O)(c2ccc(Cl)cc2)CC1 | 4.2 |
